Measurements reported in ChEMBL document CHEMBL1129426, “5-Lipoxygenase inhibitors: synthesis and structure-activity relationships of a series of 1-aryl-2H,4H-tetrahydro-1,2,4-triazin-3-ones” (J Med Chem, 1996).

Experiments:
[1] = test system: Seed linoleate lipoxygenase (Glycine max); experiment: Compound at 100 uM was tested in vitro for inhibition of 15-lipoxygenase soybean
[2] = molecular target: T1, Polyunsaturated fatty acid lipoxygenase ALOX12 (Homo sapiens) (UniProt P18054); experiment: Compound at 100 uM was tested in vitro for inhibition of 12-LO human platelet
T1 sequence (whole entry): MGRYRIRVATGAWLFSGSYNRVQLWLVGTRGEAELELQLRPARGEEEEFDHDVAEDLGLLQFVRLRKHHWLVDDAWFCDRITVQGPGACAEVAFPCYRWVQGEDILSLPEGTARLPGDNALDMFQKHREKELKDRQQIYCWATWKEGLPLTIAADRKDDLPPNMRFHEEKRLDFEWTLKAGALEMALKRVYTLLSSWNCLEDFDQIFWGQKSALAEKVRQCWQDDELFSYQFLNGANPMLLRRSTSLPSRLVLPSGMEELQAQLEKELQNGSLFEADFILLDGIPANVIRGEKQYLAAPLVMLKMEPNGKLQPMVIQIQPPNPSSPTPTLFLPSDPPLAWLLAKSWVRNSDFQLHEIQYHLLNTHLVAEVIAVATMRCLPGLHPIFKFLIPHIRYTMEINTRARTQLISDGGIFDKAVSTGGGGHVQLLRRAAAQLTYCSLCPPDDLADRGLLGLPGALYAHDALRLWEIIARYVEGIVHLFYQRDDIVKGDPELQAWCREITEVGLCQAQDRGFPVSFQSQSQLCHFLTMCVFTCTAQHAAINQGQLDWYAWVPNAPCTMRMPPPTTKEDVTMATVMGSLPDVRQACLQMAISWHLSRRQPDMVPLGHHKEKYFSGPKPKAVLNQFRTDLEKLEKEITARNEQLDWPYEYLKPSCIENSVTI

[3] = molecular target: T2, Polyunsaturated fatty acid 5-lipoxygenase (Rattus norvegicus, UniProt P12527); experiment: Inhibition of 5-lipoxygenase catalysis in rat basophilic leukemia (RBL) cells by measuring 5-HETE product formation; format: cell-based, RBL-1
T2 sequence (P12527 whole entry): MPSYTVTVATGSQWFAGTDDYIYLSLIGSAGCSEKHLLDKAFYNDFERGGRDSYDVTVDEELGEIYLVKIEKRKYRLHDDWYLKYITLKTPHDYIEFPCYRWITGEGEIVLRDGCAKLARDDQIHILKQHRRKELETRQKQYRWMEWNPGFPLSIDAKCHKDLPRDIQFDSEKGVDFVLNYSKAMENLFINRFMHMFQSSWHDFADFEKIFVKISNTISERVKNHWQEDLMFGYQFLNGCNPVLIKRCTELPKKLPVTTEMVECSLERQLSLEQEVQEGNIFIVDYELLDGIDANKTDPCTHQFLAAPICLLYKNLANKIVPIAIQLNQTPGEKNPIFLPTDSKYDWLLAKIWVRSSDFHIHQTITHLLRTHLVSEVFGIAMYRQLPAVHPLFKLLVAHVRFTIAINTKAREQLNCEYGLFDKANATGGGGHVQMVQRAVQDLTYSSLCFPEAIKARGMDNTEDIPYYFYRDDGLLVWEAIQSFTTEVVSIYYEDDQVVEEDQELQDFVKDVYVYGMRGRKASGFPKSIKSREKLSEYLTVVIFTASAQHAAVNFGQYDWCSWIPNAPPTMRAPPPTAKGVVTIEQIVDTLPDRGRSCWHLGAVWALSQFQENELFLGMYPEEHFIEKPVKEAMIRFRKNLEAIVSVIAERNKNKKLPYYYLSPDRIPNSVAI
How it was run: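 Crude 20000g supernatant from sonicated rat basophilic leukemia cells used as 5-LO source; 5-HETE product formation measured.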

Structure (SMILES)	inhibition [1] [%]	inhibition [2] [%]	IC50 [3] [µM]
O=C1NCCN(c2ccccc2)N1	14	14	
O=C1NCCN(c2cccc(Br)c2)N1			4.9
